This is a selection; strong and weak results do not stand in their true shares. The source made the active and inactive calls.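 Rule for the calls: active = GFP response vs DMSO above a set limit, about the screen mean plus 3 SD (cut at about 150% in these data); inconclusive = under 70 cell events counted for the yeast strain; inactive = the rest.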
Experiment: TOR pathway LAP4-GFP level changes – S. cerevisiae, multiplex flow cytometry, MLPCN library, primary screen (AID 2023)
Conditions: 3 h, at 10 µM, stronger effect = higher value, median GFP as percent of DMSO wells
With CCCN1CCC(Nc2cc(OC)cc(OC)c2)CC1 the GFP response vs DMSO was inactive: 97.5%. In the case of c1ccc(CN2CCC(Nc3ccccc3)CC2)cc1, the GFP response vs DMSO is reported as inactive: 98.7%. For CN(C)C1(CNC(=O)c2cccc(C#N)c2)CCCCC1, the GFP response vs DMSO was inactive: 103%. In the case of CC(C)(C)OC(=O)N1CCC(N(C(=O)c2ccccc2)c2ccc(Cl)cc2)CC1, the GFP response vs DMSO is reported as inactive: 92.6%. In the case of N#Cc1ccc(C(=O)NCC2(N3CCCCC3)CCCCC2)cc1, the GFP response vs DMSO is reported as inactive: 97.6%. In the case of CCc1cc(C(=O)NCC2(N3CCCCC3)CCCCC2)sc1C, the GFP response vs DMSO is reported as inactive: 96.2%. In the case of O=C(OC1CN2CCC1CC2)C1c2ccccc2C=Cc2ccccc21 (stereo unspecified), the GFP response vs DMSO is reported as inactive: 97.2%. For N/C(=N\O)c1c(N)no[n+]1[O-], the GFP response vs DMSO was inactive: 101%. In the case of CCOC(=O)N1CCC(Nc2ccc(C)cc2)CC1, the GFP response vs DMSO is reported as inactive: 90.2%. With COc1ccc(C(=O)NCC2(N3CCOCC3)CCCCC2)cc1OC the GFP response vs DMSO was inactive: 93.8%. In the case of O=C(NCC1(N2CCOCC2)CCCCC1)c1cc(Br)ccc1Cl, the GFP response vs DMSO is reported as inactive: 94%. With COc1cc(C(=O)NCC2(N3CCOCC3)CCCCC2)cc(OC)c1C the GFP response vs DMSO was inactive: 97.1%. With CCCOc1ccc(C)cc1CN(CCCl)CCCl the GFP response vs DMSO was inactive: 104%. For CN1CCC(Nc2ccc(Cl)cc2)CC1, the GFP response vs DMSO was inactive: 94.4%. With CCC(CO)(C(=O)OC1CN2CCC1CC2)c1ccccc1 (stereo unspecified) the GFP response vs DMSO was inactive: 95.1%. In the case of COc1cccc(C(=O)N(c2cc(C)cc(C)c2)C2CCN(C(=O)OC(C)(C)C)CC2)c1, the GFP response vs DMSO is reported as inactive: 103%. In the case of COc1cc(OC)cc(C(=O)NCC2(N3CCOCC3)CCCCC2)c1, the GFP response vs DMSO is reported as inactive: 101%. In the case of CCCOc1ccc(C(=O)NCC2(N(C)C)CCCCC2)cc1, the GFP response vs DMSO is reported as inactive: 94.2%. With O=C(O)C1(Nc2ccccc2)CCN(Cc2ccccc2)CC1 the GFP response vs DMSO was inactive: 94.5%. In the case of CC(C)(C)OC(=O)N1CCC(Nc2ccccc2)CC1, the GFP response vs DMSO is reported as inactive: 105%. In the case of CN1CCC(Nc2ccc(F)c(Cl)c2)CC1, the GFP response vs DMSO is reported as inactive: 102%. With CCOc1ncccc1C(=O)NCC1(N2CCOCC2)CCCCC1 the GFP response vs DMSO was inactive: 103%. In the case of CN(C)c1ccc(C(=O)NCC2(N3CCCCC3)CCCCC2)cc1, the GFP response vs DMSO is reported as inactive: 97.8%. With O=C(NCC1(N2CCCCC2)CCCCC1)c1ccco1 the GFP response vs DMSO was inactive: 103%. With CCN1CCC(Nc2cccc(F)c2)CC1 the GFP response vs DMSO was inactive: 94.7%. With Fc1ccccc1NC1CCN(Cc2ccccc2)CC1 the GFP response vs DMSO was inactive: 103%. With Cc1ccc(C(=O)NCC2(N3CCCCC3)CCCCC2)o1 the GFP response vs DMSO was inactive: 98.7%. With COc1cc(OC)cc(C(=O)NCC2(N3CCCCC3)CCCCC2)c1 the GFP response vs DMSO was inactive: 88.8%. For Cc1ccc(OCC(C)C)c(CN(CCCl)CCCl)c1, the GFP response vs DMSO was inactive: 123%. For CCOC(=O)N1CCC(Nc2cccc(C)c2)CC1, the GFP response vs DMSO was inactive: 99.7%. With COc1cc(C(=O)NCC2(N(C)C)CCCCC2)ccc1OC(F)F the GFP response vs DMSO was inactive: 90.9%. For CCOC(=O)N1CCC(Nc2ccc(F)cc2)CC1, the GFP response vs DMSO was inactive: 99.6%. In the case of COc1ccc(NC2CCN(CCc3ccccc3)CC2)c(OC)c1, the GFP response vs DMSO is reported as inactive: 106%. With O=C(NCC1(N2CCCCC2)CCCCC1)c1ccc(F)cc1 the GFP response vs DMSO was inactive: 92.7%. For CCOc1ccc(C)cc1CN(CCCl)CCCl, the GFP response vs DMSO was inactive: 94.5%. For CCOC(=O)N1CCC(Nc2ccc(OC)cc2)CC1, the GFP response vs DMSO was inactive: 92.9%. In the case of COc1ccc(Cl)cc1C(=O)NCC1(N2CCOCC2)CCCCC1, the GFP response vs DMSO is reported as inactive: 105%. With N#CC1(Nc2ccccc2)CCN(Cc2ccccc2)CC1 the GFP response vs DMSO was inactive: 113%. With O=C(NCC1(N2CCCCC2)CCCCC1)c1ccc(Cl)s1 the GFP response vs DMSO was inactive: 101%. For O=C(OC1CN2CCC1CC2)C1c2ccccc2Oc2ccccc21 (stereo unspecified), the GFP response vs DMSO was inactive: 104%. In the case of O=C(NCC1(N2CCOCC2)CCCCC1)c1cc2ccccc2o1, the GFP response vs DMSO is reported as inactive: 92%. With Cc1cc(C)cc(N(C(=O)c2ccccc2)C2CCN(C(=O)OC(C)(C)C)CC2)c1 the GFP response vs DMSO was inactive: 83.4%. With O=C(NCC1(N2CCCCC2)CCCCC1)c1ccc(Cl)nc1 the GFP response vs DMSO was inactive: 89.6%. In the case of CSc1ccccc1C(=O)NCC1(N2CCCCC2)CCCCC1, the GFP response vs DMSO is reported as inactive: 91.7%. In the case of O=C(NCC1(N2CCCCC2)CCCCC1)c1cccs1, the GFP response vs DMSO is reported as inactive: 99.6%. In the case of O=C(NCC1(N2CCCCC2)CCCCC1)c1ccc(=O)[nH]c1, the GFP response vs DMSO is reported as inactive: 105%. With CC(C)(C)OC(=O)N1CCC(N(C(=O)c2ccccc2)c2ccc(F)cc2)CC1 the GFP response vs DMSO was inactive: 95.8%. In the case of COc1ccc(C(=O)NCC2(N3CCCCC3)CCCCC2)c(OC)c1OC, the GFP response vs DMSO is reported as inactive: 90.7%. For COc1ccc(C(=O)NCC2(N3CCCCC3)CCCCC2)cc1, the GFP response vs DMSO was inactive: 97.8%. In the case of CCCOc1ccc(C(=O)NCC2(N(C)C)CCCCC2)cc1OC, the GFP response vs DMSO is reported as inactive: 75.5%. In the case of CN1CCC(Nc2cccc(F)c2)CC1, the GFP response vs DMSO is reported as inactive: 114%. For O=C(NCC1(N2CCCCC2)CCCCC1)c1cncc(Br)c1, the GFP response vs DMSO was inactive: 102%. With O=C(NCC1(N2CCOCC2)CCCCC1)c1cc(F)c(F)cc1Cl the GFP response vs DMSO was inactive: 102%. In the case of COc1cc(OC)c(C(=O)NCC2(N(C)C)CCCCC2)cc1OC, the GFP response vs DMSO is reported as inactive: 91.9%. With CN(C)c1cccc(C(=O)NCC2(N3CCCCC3)CCCCC2)c1 the GFP response vs DMSO was inactive: 98.3%. In the case of COc1ccc(CN(CCCl)CCCl)cc1Cl, the GFP response vs DMSO is reported as inactive: 100%. With CC(C)c1ccc(NC2CCN(C(=O)OC(C)(C)C)CC2)cc1 the GFP response vs DMSO was inactive: 98.4%. In the case of COc1ccc(NC2CCN(C(=O)OC(C)(C)C)CC2)cc1, the GFP response vs DMSO is reported as inactive: 102%. For CN1CCN(CCOC(=O)C(O)(c2ccccc2)c2ccccc2)CC1, the GFP response vs DMSO was inactive: 85.6%. With O=C(NCC1(N2CCOCC2)CCCCC1)c1cc(=O)[nH]c2ccccc12 the GFP response vs DMSO was inactive: 95.2%. With COc1cc(C(=O)NCC2(N3CCCCC3)CCCCC2)ccc1OC(F)F the GFP response vs DMSO was inactive: 115%. For O=C(NCC1(N2CCCCC2)CCCCC1)c1cccc(C(F)(F)F)c1, the GFP response vs DMSO was inactive: 98.7%. In the case of O=C(NCC1(N2CCCCC2)CCCCC1)c1cccc([N+](=O)[O-])c1, the GFP response vs DMSO is reported as inactive: 102%. With N#CC1(Nc2ccccc2)CCN(CCc2ccccc2)CC1 the GFP response vs DMSO was inactive: 104%. In the case of CCN1CCC(Nc2ccc(Cl)cc2)CC1, the GFP response vs DMSO is reported as inactive: 97.5%. For O=C(NCC1(N2CCCCC2)CCCCC1)c1ccc(OC(F)F)cc1, the GFP response vs DMSO was inactive: 95.2%.
